Literature values as cited in publication PMC10792358 (Clinical Cancer Research, 2023).

System: NUT carcinoma and other solid tumors
Settings: molibresib monotherapy; cited from earlier work

Which “recommended phase II dose (RP2D)” value does the source give for CCNC(=O)C[C@@H]1N=C(c2ccc(Cl)cc2)c2cc(OC)ccc2-n2c(C)nnc21 [molibresib] here?
Its value is 80 mg daily.
